Assay results: patent US20260384453A1, “FUSED RING COMPOUND AND USE THEREOF IN KRAS INHIBITOR” (published 2026)

The chains behind the UniProt entries cited, without tags or fusion partners. A line that says so, or that is headed by a name, gives the form on record, which may keep a tag or linker. Residues count along the entry.
UniProt P01116, 1-188 with tags or gaps G12D: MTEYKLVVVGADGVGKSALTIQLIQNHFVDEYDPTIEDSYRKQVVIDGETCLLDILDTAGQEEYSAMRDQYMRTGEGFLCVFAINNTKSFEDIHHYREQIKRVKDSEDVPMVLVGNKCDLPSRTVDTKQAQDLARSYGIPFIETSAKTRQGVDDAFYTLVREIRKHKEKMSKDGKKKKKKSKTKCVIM

What was measured:
[1] = target: KRAS G12D-mediated ERK phosphorylation, AGS cells (Homo sapiens, UniProt P01116, G12D); assay: Inhibition of KRAS G12D-mediated ERK phosphorylation in AGS cells; conditions: read-out: Inhibitory activity on ERK phosphorylation (IC50), AGS-G12D, 3 h incubation
Procedure: Test Example 1: Inhibitory Activity Test of Compounds on KRAS G12D/G12V/G12C/G13D/G12R-Mediated ERK Phosphorylation
Day 1: AGS cells, SW480 cells, NCI H358 cells, HCT116 cells, and KP2 cells were seeded into 384-well cell culture plates and cultured overnight in a 37 °C, 5% CO2 incubator.
Day 2: The compounds were added to the plates using Echo550 and incubated for 3 h in a 37 °C, 5% CO2 incubator. Then, cells fixed with paraformaldehyde, permeated with methanol and blocked with a blocking solution were added. Finally, a mixed solution of primary antibodies (rabbit anti pERK, mouse anti GAPDH) was added, and the mixture was incubated overnight at 4 °C.
Day 3: The mixed solution of primary antibodies was discarded, and a mixed solution of secondary antibodies (goat anti rabbit 800 CW, goat anti mouse 680 RD) was added. The resulting mixture was incubated at room temperature in the dark. Finally, the cell culture plate was washed with PBST, and then inverted for 1 minute of centrifugation. The fluorescence signal values were read with Odyssey CLx.
ERK phosphorylation was calculated according to the following formula:
Relative expression: (fluorescence signal ratio of compound−average value of positive control)/(average value of negative control−average value of positive control)
Positive control: 10 μM Reference
IC50 value was fitted and calculated by XLFit 5.0 using the parametric formula. […]

[2] = system: human ovarian cancer RKN mouse xenograft tumor; assay: In vivo drug efficacy, RKN subcutaneous xenograft in Balb/c nude mice; conditions: 50 mg/kg, PO, BID × 28
Procedure: A subcutaneous xenograft tumor model of human ovarian cancer RKN (derived from uterine leiomyosarcoma) cells was established in Balb/c nude mice. RKN tumor cells resuspended in Ham's F12 medium were inoculated subcutaneously on the right side of the experimental animals at 5×10^6+gel/0.1 mL. When the tumor grew to about 150-200 mm^3, 20 animals having relatively uniform tumor volumes were selected for group administration, with a total of 4 groups, 5 animals in each group. On the day of the experiment, the animals were given the corresponding drugs according to the groups. The first group G1 was set as a solvent group, and 50 mM citrate buffer (pH 5.0)+10% Captisol was given by gavage alone. The second group G2 was given a 50 mM citrate buffer (pH 5.0)+10% Captisol of compound 21. The third group G3 was given a 50 mM citrate buffer (pH 5.0)+10% Captisol of compound 26. The fourth group G4 was given a 50 mM citrate buffer (pH 5.0)+10% Captisol of compound 31.
(§1) Note: PO indicates oral administration, and BID indicates twice daily.
(§2) During the experiment, the body weight and tumor size of the animals were measured twice a week, and the clinical symptoms of the animals were observed and recorded every day. Each drug administration was based on the most recent weighing of the animals.
(§3) The tumor was measured with a digital vernier caliper to measure the length (a) and width (b). The tumor volume (TV) was calculated using the following formula: […]

[3] = system: human colon cancer GP2D mouse xenograft tumor; assay: In vivo drug efficacy, GP2D subcutaneous xenograft in Balb/c nude mice; conditions: 30 mg/kg, PO, BID × 28
Procedure: A human colon cancer GP2D cell subcutaneous xenograft tumor Balb/c nude mouse model was established. GP2D tumor cells resuspended in DMEM medium were inoculated subcutaneously on the right side of the experimental animal at 1×10^7+gel/0.1 mL. When the tumor grew to about 150-200 mm^3, administration in groups began, with 5 animals in each group. On the day of the experiment, the animals were given corresponding drugs according to the groups. The first group G1 was set as a solvent group, and 50 mM citrate buffer (pH 5.0)+10% Captisol was given by gavage alone. The second group G2 was given a 50 mM citrate buffer (pH 5.0)+10% Captisol of compound 26. The third group G3 was given a 50 mM citrate buffer (pH 5.0)+10% Captisol of compound 31.
as §1, §2, §3

Compound	IC50 [1] [nM]	Inhibitory effect on RKN xenograft tumors (in words) [2]	Inhibitory effect on GP2D xenograft tumors (in words) [3]
COC1CCN(c2nc(OC[C@]34CCCN3[C@@H](c3cc(F)c(F)c(F)c3)CC4)nc3c(F)c(-c4ccc(F)c5sc(N)c(C#N)c45)c(Cl)cc23)C1 (mixture of isomers)	> 1000	–	–
N#Cc1c(N)sc2c(F)ccc(-c3c(Cl)cc4c(N5CCCC(O)(C(F)(F)F)CC5)nc(OC[C@]56CCCN5[C@@H](c5cc(F)c(F)c(F)c5)CC6)nc4c3F)c12 (mixture of isomers)	313	–	–
CC1(O)COCCN(c2nc(OC[C@]34CCCN3[C@@H](c3cc(F)c(F)c(F)c3)CC4)nc3c(F)c(-c4cccc5sc(N)c(C#N)c45)c(Cl)cc23)C1 (single isomer, unassigned) [Example 21]	–	significant inhibitory effects	–
CC1(O)COCCN(c2nc(OC[C@]34CCCN3[C@@H](c3cc(F)c(F)c(F)c3)CC4)nc3c(F)c(-c4cccc5sc(N)c(C#N)c45)c(Br)cc23)C1 (single isomer, unassigned) [Example 26]	–	significant inhibitory effects	significant inhibitory effects
CC1(O)COCCN(c2nc(OC[C@]34CCCN3[C@@H](c3cc(F)c(F)c(F)c3)CC4)nc3c(F)c(-c4cccc5sc(N)c(C#N)c45)c(I)cc23)C1 (single isomer, unassigned) [Example 31]	–	significant inhibitory effects	significant inhibitory effects
